Earlier results on one compound are cited in patent US7632837B2, “Bicyclic heterocycles as cannabinoid-1 receptor modulators” (Bristol-Myers Squibb Company, priority 2005, dated 2009).

The conditions of this data set: chronic administration for two weeks.

On to `Cc1c(C(=O)NN2CCCCC2)nn(-c2ccc(Cl)cc2Cl)c1-c1ccc(I)cc1` [AM-251], for which the adipose tissue mass entry was “decreased adipose tissue mass”.
